Test system: human red blood cells (hRBC)
Experiment: Hemolysis (hemoglobin release assay)
Details: mean

CC[C@H](C)[C@H](NC(=O)CN)C(=O)NCC(=O)N[C@@H](C)C(=O)N[C@H](C(=O)N[C@@H](CC(C)C)C(=O)N[C@@H](CCCCN)C(=O)N[C@H](C(=O)N[C@@H](CC(C)C)C(=O)N[C@H](C(=O)N[C@H](C(=O)NCC(=O)N[C@@H](CC(C)C)C(=O)N1CCC[C@H]1C(=O)N[C@@H](C)C(=O)N[C@@H](CC(C)C)C(=O)N[C@H](C(=O)N[C@@H](CO)C(=O)N[C@@H](Cc1c[nH]c2ccccc12)C(=O)N[C@H](C(=O)N[C@@H](CCCCN)C(=O)N[C@@H](CCCNC(=N)N)C(=O)N[C@@H](CCCCN)C(=O)N[C@@H](CCCNC(=N)N)C(=O)N[C@@H](CCC(N)=O)C(=O)N[C@@H](CCC(N)=O)C(N)=O)[C@@H](C)CC)[C@@H](C)CC)[C@@H](C)O)[C@@H](C)O)C(C)C)C(C)C [Melittin]
Hemolysis (0.5 µM): 3.035%
Hemolysis (1 µM): 8.361%
Hemolysis (2 µM): 17.031%
Hemolysis (4 µM): 42.344%
Hemolysis (8 µM): 94.219%
Hemolysis (16 µM): 102.35%
Hemolysis (32 µM): 99.08%
